For one substance, persistence in tumors results are on record in patent publication US20260028404A1, “METHODS FOR TREATING CANCER INCLUDING GLATIRAMER ACETATE AND IMMUNE CHECKPOINT INHIBITORS” (UNIVERSITY OF KANSAS, priority 2022, published 2026).

The conditions of this series: mouse tumors, intratumoral injection.

As to Glatiramer acetate [GA], the persistence in tumors result is given as “persists in mouse tumors after intratumoral injection”.
